What was measured:
Type in all cases: biochemical
ABL2/ARG = molecular target: T1, ABL2/ARG (Homo sapiens, UniProt P42684); test: HotSpot kinase assay; settings: 10µM
T1 construct: purchased Reaction Biology Corporation

Sequences of proteins named here, by UniProt entry; tags and fusion partners are left off. A change or cut given only in a name is not applied to a line headed by its entry. Residues count along the entry.
UniProt Q04771, 21-509: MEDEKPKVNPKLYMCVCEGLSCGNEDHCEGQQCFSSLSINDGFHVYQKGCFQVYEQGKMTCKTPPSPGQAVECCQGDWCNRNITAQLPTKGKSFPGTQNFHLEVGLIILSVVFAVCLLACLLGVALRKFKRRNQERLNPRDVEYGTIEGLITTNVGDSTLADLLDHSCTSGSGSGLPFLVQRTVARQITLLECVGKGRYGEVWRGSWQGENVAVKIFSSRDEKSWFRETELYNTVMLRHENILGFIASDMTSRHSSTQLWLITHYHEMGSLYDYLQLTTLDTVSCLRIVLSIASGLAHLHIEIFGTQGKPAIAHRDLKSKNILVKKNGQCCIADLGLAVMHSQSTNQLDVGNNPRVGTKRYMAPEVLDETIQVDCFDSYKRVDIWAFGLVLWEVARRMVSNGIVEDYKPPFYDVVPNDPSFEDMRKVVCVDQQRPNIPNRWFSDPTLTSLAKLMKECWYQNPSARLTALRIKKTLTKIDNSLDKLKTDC
UniProt Q13882, whole entry: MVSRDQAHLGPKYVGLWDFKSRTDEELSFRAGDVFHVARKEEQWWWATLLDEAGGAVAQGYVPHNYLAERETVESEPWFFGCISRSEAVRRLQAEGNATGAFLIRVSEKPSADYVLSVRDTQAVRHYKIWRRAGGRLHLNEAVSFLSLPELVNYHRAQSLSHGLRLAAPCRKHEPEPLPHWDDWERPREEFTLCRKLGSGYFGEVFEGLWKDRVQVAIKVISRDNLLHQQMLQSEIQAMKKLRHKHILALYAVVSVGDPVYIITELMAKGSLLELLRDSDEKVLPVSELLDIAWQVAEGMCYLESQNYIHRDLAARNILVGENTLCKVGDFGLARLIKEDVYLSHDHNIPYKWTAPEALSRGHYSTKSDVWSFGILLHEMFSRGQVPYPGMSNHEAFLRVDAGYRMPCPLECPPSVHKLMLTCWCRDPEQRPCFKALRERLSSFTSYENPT
UniProt Q13554, whole entry: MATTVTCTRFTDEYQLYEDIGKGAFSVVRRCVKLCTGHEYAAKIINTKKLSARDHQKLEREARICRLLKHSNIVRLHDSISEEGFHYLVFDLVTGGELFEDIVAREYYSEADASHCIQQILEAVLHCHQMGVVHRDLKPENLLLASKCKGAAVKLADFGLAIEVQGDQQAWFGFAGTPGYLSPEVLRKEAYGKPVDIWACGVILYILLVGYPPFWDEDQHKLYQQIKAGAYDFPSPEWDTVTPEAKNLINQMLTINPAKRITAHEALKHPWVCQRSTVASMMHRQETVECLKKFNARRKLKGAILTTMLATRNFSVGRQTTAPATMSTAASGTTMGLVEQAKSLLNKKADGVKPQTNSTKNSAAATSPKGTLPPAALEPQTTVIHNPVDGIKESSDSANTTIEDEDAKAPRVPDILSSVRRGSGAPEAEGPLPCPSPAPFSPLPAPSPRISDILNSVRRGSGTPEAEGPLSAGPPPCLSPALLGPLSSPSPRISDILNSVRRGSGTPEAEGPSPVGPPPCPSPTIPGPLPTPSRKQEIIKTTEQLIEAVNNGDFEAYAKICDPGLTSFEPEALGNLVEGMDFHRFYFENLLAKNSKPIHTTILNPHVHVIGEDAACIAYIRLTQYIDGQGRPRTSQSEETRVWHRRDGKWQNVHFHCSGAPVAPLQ
UniProt P11802: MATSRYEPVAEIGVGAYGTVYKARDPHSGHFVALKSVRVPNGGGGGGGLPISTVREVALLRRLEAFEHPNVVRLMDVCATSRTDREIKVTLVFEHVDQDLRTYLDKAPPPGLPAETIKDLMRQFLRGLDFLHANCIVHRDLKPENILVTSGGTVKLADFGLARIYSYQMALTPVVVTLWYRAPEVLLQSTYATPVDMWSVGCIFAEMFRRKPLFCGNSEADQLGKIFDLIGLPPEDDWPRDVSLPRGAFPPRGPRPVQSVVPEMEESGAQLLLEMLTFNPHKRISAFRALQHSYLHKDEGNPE
UniProt P68400, whole entry: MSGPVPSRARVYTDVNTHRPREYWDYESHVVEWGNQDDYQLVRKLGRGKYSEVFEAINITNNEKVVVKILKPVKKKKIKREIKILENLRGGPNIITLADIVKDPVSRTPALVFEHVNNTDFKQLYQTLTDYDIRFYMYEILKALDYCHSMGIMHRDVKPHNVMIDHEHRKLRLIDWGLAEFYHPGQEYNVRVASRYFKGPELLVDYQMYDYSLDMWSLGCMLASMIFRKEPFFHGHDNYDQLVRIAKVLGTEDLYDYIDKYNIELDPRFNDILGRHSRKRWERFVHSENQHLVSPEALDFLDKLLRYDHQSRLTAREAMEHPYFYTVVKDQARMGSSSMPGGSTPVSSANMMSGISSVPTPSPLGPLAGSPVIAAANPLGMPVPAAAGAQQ
UniProt P27448: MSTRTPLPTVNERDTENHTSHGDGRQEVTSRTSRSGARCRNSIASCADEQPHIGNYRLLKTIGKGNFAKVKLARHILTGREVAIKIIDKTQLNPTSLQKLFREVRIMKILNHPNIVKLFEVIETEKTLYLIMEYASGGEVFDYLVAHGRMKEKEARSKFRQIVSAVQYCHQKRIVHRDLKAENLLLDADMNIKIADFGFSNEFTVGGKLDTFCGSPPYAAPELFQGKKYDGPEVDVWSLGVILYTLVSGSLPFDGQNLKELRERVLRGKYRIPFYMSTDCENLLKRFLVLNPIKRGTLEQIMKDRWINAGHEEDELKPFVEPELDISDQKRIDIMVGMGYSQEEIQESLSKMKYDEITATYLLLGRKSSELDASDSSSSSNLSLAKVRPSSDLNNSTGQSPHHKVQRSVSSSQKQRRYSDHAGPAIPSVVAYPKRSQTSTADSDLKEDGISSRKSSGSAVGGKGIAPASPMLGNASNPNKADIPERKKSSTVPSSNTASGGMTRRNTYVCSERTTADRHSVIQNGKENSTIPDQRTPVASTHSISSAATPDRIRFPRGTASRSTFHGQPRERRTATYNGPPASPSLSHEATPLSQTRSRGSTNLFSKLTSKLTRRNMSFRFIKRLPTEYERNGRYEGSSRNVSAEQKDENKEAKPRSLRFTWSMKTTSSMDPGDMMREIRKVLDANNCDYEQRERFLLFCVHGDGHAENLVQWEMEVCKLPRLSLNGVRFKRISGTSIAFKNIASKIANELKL
UniProt Q96GX5: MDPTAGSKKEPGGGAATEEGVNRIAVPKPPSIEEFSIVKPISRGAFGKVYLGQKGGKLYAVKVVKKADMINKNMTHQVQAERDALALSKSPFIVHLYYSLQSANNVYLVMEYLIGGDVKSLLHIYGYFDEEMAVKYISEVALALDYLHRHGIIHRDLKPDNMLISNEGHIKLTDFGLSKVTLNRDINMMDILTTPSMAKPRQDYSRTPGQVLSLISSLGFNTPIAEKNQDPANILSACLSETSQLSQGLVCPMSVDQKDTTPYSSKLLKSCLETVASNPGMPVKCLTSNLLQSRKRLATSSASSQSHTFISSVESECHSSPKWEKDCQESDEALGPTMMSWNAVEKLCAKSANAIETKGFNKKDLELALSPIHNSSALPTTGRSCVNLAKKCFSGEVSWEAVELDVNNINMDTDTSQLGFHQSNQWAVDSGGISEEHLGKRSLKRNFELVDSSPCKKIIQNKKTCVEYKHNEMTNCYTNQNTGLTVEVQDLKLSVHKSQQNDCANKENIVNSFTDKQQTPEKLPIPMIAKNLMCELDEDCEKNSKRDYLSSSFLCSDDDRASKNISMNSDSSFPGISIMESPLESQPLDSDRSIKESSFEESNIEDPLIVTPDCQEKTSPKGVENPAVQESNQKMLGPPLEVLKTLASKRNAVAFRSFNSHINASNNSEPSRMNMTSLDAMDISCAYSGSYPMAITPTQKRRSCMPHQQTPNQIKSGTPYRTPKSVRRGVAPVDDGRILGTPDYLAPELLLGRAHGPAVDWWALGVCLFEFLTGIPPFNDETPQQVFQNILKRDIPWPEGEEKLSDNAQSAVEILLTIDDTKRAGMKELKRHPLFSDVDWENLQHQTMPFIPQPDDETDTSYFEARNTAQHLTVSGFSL
UniProt P41743, whole entry: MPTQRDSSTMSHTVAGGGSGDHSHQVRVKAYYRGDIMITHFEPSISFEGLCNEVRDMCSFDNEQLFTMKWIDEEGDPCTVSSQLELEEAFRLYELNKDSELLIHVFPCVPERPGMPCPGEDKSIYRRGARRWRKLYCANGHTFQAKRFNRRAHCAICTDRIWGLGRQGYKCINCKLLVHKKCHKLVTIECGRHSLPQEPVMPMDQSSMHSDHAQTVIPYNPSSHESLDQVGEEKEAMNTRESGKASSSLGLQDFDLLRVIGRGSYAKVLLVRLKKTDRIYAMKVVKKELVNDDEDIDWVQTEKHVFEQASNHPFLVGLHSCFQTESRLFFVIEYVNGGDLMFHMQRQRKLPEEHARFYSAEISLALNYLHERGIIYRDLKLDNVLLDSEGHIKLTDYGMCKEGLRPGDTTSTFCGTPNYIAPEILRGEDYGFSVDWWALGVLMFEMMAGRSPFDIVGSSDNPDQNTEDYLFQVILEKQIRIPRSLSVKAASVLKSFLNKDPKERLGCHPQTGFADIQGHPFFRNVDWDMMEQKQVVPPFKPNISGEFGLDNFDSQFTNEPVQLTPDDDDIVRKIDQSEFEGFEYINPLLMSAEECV
UniProt P53350, whole entry: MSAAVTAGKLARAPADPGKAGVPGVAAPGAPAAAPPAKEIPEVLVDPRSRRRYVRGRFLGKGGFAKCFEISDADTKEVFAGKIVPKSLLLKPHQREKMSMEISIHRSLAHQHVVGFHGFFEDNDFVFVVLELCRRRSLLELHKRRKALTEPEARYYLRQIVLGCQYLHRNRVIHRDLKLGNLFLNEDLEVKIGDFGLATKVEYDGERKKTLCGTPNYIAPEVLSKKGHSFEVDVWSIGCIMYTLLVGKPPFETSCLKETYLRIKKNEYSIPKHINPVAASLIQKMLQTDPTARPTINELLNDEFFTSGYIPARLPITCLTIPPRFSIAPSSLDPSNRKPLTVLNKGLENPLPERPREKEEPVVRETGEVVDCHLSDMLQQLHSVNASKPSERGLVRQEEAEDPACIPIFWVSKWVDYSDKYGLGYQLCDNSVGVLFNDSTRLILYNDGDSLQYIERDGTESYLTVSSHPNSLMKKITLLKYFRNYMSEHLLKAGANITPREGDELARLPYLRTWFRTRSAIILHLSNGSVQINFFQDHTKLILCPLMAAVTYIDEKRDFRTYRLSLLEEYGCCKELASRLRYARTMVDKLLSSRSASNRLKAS
UniProt Q9H0K1: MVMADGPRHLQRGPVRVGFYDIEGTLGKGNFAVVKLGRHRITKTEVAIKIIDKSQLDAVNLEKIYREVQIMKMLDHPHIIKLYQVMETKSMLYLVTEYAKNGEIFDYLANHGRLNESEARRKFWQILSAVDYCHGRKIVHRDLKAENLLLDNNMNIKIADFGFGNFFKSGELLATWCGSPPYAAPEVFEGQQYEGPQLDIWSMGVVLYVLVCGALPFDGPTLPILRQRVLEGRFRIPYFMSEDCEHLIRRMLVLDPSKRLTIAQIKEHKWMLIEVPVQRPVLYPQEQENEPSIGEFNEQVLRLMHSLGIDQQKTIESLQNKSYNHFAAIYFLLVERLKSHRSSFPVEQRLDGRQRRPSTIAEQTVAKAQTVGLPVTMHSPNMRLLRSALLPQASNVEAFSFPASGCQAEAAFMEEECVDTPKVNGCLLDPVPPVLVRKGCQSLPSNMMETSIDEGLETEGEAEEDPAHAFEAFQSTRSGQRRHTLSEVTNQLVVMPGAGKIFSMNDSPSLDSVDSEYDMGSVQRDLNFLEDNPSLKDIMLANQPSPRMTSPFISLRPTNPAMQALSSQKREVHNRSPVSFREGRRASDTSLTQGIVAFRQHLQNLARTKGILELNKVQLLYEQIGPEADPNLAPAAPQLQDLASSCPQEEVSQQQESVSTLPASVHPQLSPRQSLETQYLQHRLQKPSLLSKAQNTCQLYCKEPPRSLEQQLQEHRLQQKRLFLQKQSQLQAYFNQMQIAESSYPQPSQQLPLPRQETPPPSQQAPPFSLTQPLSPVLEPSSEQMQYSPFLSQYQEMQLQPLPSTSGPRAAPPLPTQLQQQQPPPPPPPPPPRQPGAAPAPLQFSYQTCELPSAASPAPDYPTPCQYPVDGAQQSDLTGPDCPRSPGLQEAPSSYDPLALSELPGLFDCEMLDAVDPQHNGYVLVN
UniProt Q15118, 29-436: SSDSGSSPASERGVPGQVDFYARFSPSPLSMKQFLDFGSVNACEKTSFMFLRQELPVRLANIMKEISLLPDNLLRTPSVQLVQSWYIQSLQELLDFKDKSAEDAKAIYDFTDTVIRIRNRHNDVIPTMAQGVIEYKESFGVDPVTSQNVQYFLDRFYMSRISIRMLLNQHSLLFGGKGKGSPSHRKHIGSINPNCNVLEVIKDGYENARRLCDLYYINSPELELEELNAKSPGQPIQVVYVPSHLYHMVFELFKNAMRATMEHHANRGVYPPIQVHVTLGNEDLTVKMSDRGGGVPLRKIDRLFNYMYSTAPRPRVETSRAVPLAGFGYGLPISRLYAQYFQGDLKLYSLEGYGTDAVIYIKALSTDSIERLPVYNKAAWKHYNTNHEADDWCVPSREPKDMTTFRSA

AKT1 = molecular target: T2, AKT1 (Homo sapiens, UniProt P31749); settings: 10µM
T2 construct: purchased Reaction Biology Corporation

ALK2/ACVR1 = molecular target: T3, ALK2/ACVR1 (Homo sapiens, UniProt Q04771); test: HotSpot kinase assay; settings: 10µM
T3 construct: purchased Reaction Biology Corporation

ALK5/TGFBR1 = molecular target: T4, ALK5/TGFBR1 (Homo sapiens, UniProt P36897); test: HotSpot kinase assay; settings: 10µM
T4 construct: purchased Reaction Biology Corporation

BRK = molecular target: T5, BRK (Homo sapiens, UniProt Q13882); test: HotSpot kinase assay; settings: 10µM
T5 construct: purchased Reaction Biology Corporation

CAMK1g = molecular target: T6, CAMK1g (Homo sapiens, UniProt Q96NX5); test: HotSpot kinase assay; settings: 10µM
T6 construct: purchased Reaction Biology Corporation

CAMK2b = molecular target: T7, CAMK2b (Homo sapiens, UniProt Q13554); test: HotSpot kinase assay; settings: 10µM
T7 construct: purchased Reaction Biology Corporation

CAMKK2 = molecular target: T8, CAMKK2 (Homo sapiens, UniProt Q96RR4); test: HotSpot kinase assay; settings: 10µM
T8 construct: purchased Reaction Biology Corporation

CDK1/cyclin E = molecular target: T9, CDK1/cyclin E (Homo sapiens, UniProt P06493); test: HotSpot kinase assay; settings: 10µM
T9 construct: purchased Reaction Biology Corporation

CDK2/CYCLIN E = molecular target: T10, CDK2/CYCLIN E (Homo sapiens, UniProt P24941); test: HotSpot kinase assay; settings: 10µM
T10 construct: purchased Reaction Biology Corporation

CDK2/cyclin E2 = molecular target: T11, CDK2/cyclin E2 (Homo sapiens, UniProt P24941); test: HotSpot kinase assay; settings: 10µM
T11 construct: purchased Reaction Biology Corporation

CDK3/cyclin E = molecular target: T12, CDK3/cyclin E (Homo sapiens, UniProt Q00526); test: HotSpot kinase assay; settings: 10µM
T12 construct: purchased Reaction Biology Corporation

CDK4/cyclin D1 = molecular target: T13, CDK4/cyclin D1 (Homo sapiens, UniProt P11802); test: HotSpot kinase assay; settings: 10µM
T13 construct: purchased Reaction Biology Corporation

CK1epsilon = molecular target: T14, CK1epsilon (Homo sapiens, UniProt P49674); test: HotSpot kinase assay; settings: 10µM
T14 construct: purchased Reaction Biology Corporation

CK2a = molecular target: T15, CK2a (Homo sapiens, UniProt P68400); test: HotSpot kinase assay; settings: 10µM
T15 construct: purchased Reaction Biology Corporation

EPHA6 = molecular target: T16, EPHA6 (Homo sapiens, UniProt Q9UF33); test: HotSpot kinase assay; settings: 10µM
T16 construct: purchased Reaction Biology Corporation

EPHB1 = molecular target: T17, EPHB1 (Homo sapiens, UniProt P54762); test: HotSpot kinase assay; settings: 10µM
T17 construct: purchased Reaction Biology Corporation

EPHB4 = molecular target: T18, EPHB4 (Homo sapiens, UniProt P54760); test: HotSpot kinase assay; settings: 10µM
T18 construct: purchased Reaction Biology Corporation

ERK2/MAPK1 = molecular target: T19, ERK2/MAPK1 (Homo sapiens, UniProt P28482); test: HotSpot kinase assay; settings: 10µM
T19 construct: purchased Reaction Biology Corporation

HIPK4 = molecular target: T20, HIPK4 (Homo sapiens, UniProt Q8NE63); test: HotSpot kinase assay; settings: 10µM
T20 construct: purchased Reaction Biology Corporation

IR = molecular target: T21, IR (Homo sapiens, UniProt P06213)
T21 construct: purchased Reaction Biology Corporation

KHS/MAP4K5 = molecular target: T22, KHS/MAP4K5 (Homo sapiens, UniProt Q9Y4K4); test: HotSpot kinase assay; settings: 10µM
T22 construct: purchased Reaction Biology Corporation

LIMK1 = molecular target: T23, LIMK1 (Homo sapiens, UniProt P53667); test: HotSpot kinase assay; settings: 10µM
T23 construct: purchased Reaction Biology Corporation

MARK3 = molecular target: T24, MARK3 (Homo sapiens, UniProt P27448); test: HotSpot kinase assay; settings: 10µM
T24 construct: purchased Reaction Biology Corporation

MASTL = molecular target: T25, MASTL (Homo sapiens, UniProt Q96GX5); test: HotSpot kinase assay; settings: 10µM
T25 construct: purchased Reaction Biology Corporation

MLK2/MAP3K10 = molecular target: T26, MLK2/MAP3K10 (Homo sapiens, UniProt Q02779); test: HotSpot kinase assay; settings: 10µM
T26 construct: purchased Reaction Biology Corporation

MYO3A = molecular target: T27, MYO3A (Homo sapiens, UniProt Q8NEV4); test: HotSpot kinase assay; settings: 10µM
T27 construct: purchased Reaction Biology Corporation

NEK7 = molecular target: T28, NEK7 (Homo sapiens, UniProt Q8TDX7); test: HotSpot kinase assay; settings: 10µM
T28 construct: purchased Reaction Biology Corporation

PAK1 = molecular target: T29, PAK1 (Homo sapiens, UniProt Q13153); test: HotSpot kinase assay; settings: 10µM
T29 construct: purchased Reaction Biology Corporation

PKCepsilon = molecular target: T30, PKCepsilon (Homo sapiens, UniProt Q02156); test: HotSpot kinase assay; settings: 10µM
T30 construct: purchased Reaction Biology Corporation

PKCIOTA = molecular target: T31, PKCIOTA (Homo sapiens, UniProt P41743); test: HotSpot kinase assay; settings: 10µM
T31 construct: purchased Reaction Biology Corporation

PKCzeta = molecular target: T32, PKCzeta (Homo sapiens, UniProt Q05513); test: HotSpot kinase assay; settings: 10µM
T32 construct: purchased Reaction Biology Corporation

PLK1 = molecular target: T33, PLK1 (Homo sapiens, UniProt P53350); test: HotSpot kinase assay; settings: 10µM
T33 construct: purchased Reaction Biology Corporation

PYK2 = molecular target: T34, PYK2 (Homo sapiens, UniProt Q14289); test: HotSpot kinase assay; settings: 10µM
T34 construct: purchased Reaction Biology Corporation

ROS/ROS1 = molecular target: T35, ROS/ROS1 (Homo sapiens, UniProt P08922); test: HotSpot kinase assay; settings: 10µM
T35 construct: purchased Reaction Biology Corporation

SIK2 = molecular target: T36, SIK2 (Homo sapiens, UniProt Q9H0K1); test: HotSpot kinase assay; settings: 10µM
T36 construct: purchased Reaction Biology Corporation

STK32B/YANK2 = molecular target: T37, STK32B/YANK2 (Homo sapiens, UniProt Q9NY57); test: HotSpot kinase assay; settings: 10µM
T37 construct: purchased Reaction Biology Corporation

TAOK2/TAO1 = molecular target: T38, TAOK2/TAO1 (Homo sapiens, UniProt Q9UL54); test: HotSpot kinase assay; settings: 10µM
T38 construct: purchased Reaction Biology Corporation

TAOK3/JIK = molecular target: T39, TAOK3/JIK (Homo sapiens, UniProt Q9H2K8); test: HotSpot kinase assay; settings: 10µM
T39 construct: purchased Reaction Biology Corporation

TYRO3/SKY = molecular target: T40, TYRO3/SKY (Homo sapiens, UniProt Q06418); test: HotSpot kinase assay; settings: 10µM
T40 construct: purchased Reaction Biology Corporation

AMPK(A2/B2/G2) = molecular target: T41, AMPK(A2/B2/G2) (Homo sapiens, UniProt P54646); test: HotSpot kinase assay; settings: 10µM
T41 construct: purchased Reaction Biology Corporation

PDK1/PDHK1 = molecular target: T42, PDK1/PDHK1 (Homo sapiens, UniProt Q15118); test: HotSpot kinase assay; settings: 10µM
T42 construct: purchased Reaction Biology Corporation

PDK2/PDHK2 = molecular target: T43, PDK2/PDHK2 (Homo sapiens, UniProt Q15119); test: HotSpot kinase assay; settings: 10µM
T43 construct: purchased Reaction Biology Corporation

SMILES: CO[C@@H]1[C@H](N(C)C(=O)CCC(=O)NCc2cn(CCCS(=O)(=O)O)nn2)C[C@H]2O[C@]1(C)n1c3ccccc3c3c4c(c5c6ccccc6n2c5c31)C(=O)NC4 [CIMSS]
- % Enzyme Activity (relative to DMSO controls) (ABL2/ARG): 3.90%
- % Enzyme Activity (relative to DMSO controls) (AKT1): 23.61%
- % Enzyme Activity (relative to DMSO controls) (ALK2/ACVR1): 71.88%
- % Enzyme Activity (relative to DMSO controls) (ALK5/TGFBR1): 85.77%
- % Enzyme Activity (relative to DMSO controls) (BRK): 24.16%
- % Enzyme Activity (relative to DMSO controls) (CAMK1g): 8.82%
- % Enzyme Activity (relative to DMSO controls) (CAMK2b): 2.90%
- % Enzyme Activity (relative to DMSO controls) (CAMKK2): 1.81%
- % Enzyme Activity (relative to DMSO controls) (CDK1/cyclin E): 17.80%
- % Enzyme Activity (relative to DMSO controls) (CDK2/CYCLIN E): 5.60%
- % Enzyme Activity (relative to DMSO controls) (CDK2/cyclin E2): 11.44%
- % Enzyme Activity (relative to DMSO controls) (CDK3/cyclin E): 12.85%
- % Enzyme Activity (relative to DMSO controls) (CDK4/cyclin D1): 68.11%
- % Enzyme Activity (relative to DMSO controls) (CK1epsilon): 38.79%
- % Enzyme Activity (relative to DMSO controls) (CK2a): 70.67%
- % Enzyme Activity (relative to DMSO controls) (EPHA6): 33.33%
- % Enzyme Activity (relative to DMSO controls) (EPHB1): 1.62%
- % Enzyme Activity (relative to DMSO controls) (EPHB4): 18.92%
- % Enzyme Activity (relative to DMSO controls) (ERK2/MAPK1): 74.09%
- % Enzyme Activity (relative to DMSO controls) (HIPK4): 10.40%
- % Enzyme Activity (relative to DMSO controls) (IR; 10µM): 15.41%
- fold less effective than staurosporine (IC50) (IR; insulin receptor): ~ 40 fold
- % Enzyme Activity (relative to DMSO controls) (KHS/MAP4K5): 5.14%
- % Enzyme Activity (relative to DMSO controls) (LIMK1): 0.77%
- % Enzyme Activity (relative to DMSO controls) (MARK3): 1.76%
- % Enzyme Activity (relative to DMSO controls) (MASTL): 33.66%
- % Enzyme Activity (relative to DMSO controls) (MLK2/MAP3K10): 1.47%
- % Enzyme Activity (relative to DMSO controls) (MYO3A): 5.96%
- % Enzyme Activity (relative to DMSO controls) (NEK7): 82.08%
- % Enzyme Activity (relative to DMSO controls) (PAK1): 7.21%
- % Enzyme Activity (relative to DMSO controls) (PKCepsilon): 0.77%
- % Enzyme Activity (relative to DMSO controls) (PKCIOTA): 30.93%
- % Enzyme Activity (relative to DMSO controls) (PKCzeta): 55.85%
- % Enzyme Activity (relative to DMSO controls) (PLK1): 17.05%
- % Enzyme Activity (relative to DMSO controls) (PYK2): 2.27%
- % Enzyme Activity (relative to DMSO controls) (ROS/ROS1): 4.19%
- % Enzyme Activity (relative to DMSO controls) (SIK2): 1.17%
- % Enzyme Activity (relative to DMSO controls) (STK32B/YANK2): 0.91%
- % Enzyme Activity (relative to DMSO controls) (TAOK2/TAO1): 35.06%
- % Enzyme Activity (relative to DMSO controls) (TAOK3/JIK): 12.63%
- % Enzyme Activity (relative to DMSO controls) (TYRO3/SKY): 23.35%
- % Enzyme Activity (relative to DMSO controls) (AMPK(A2/B2/G2)): 0.63%
- % Enzyme Activity (relative to DMSO controls) (PDK1/PDHK1): 96.82%
- % Enzyme Activity (relative to DMSO controls) (PDK2/PDHK2): 93.95%

Source: PMC9569420 (Communications Biology, 2022)
